One compound from US20230218714A1, “DIAGNOSTICS AND USE OF QUORUM SENSING MOLECULES IN MUSCLE WASTING” (Universiteit Gent, priority 2019, published 2023) can be followed below.

In assay [1] the test system is human muscle cells. Description: MTT reduction dose response in human muscle cells. The assay is classed as cell-based. To be noted: FIG. 9. The protocol:
Differentiation medium consisted of high glucose Glutamax DMEM supplemented with penicillin (100 units/ml), streptomycin (100 μg/ml) and insulin (10 μg/mL).
Using similar methods as described for the C2C12 experiments, a number of QSPs were tested for a dose response relation in human muscle cells.

Assay [2] has as its system C2C12 myotubes. In words: MTT reduction dose response in C2C12 myotubes. The assay is classed as cell-based, mouse. The protocol: In a further set of experiments, using similar methods as described for the screening experiments, a number of QSPs were tested for a dose response relation in C2C12 cells.
Assay [3] deals with C2C12 myoblasts. In words: MTT cell viability assay in C2C12 myoblasts. The protocol:
The mouse myoblast C2C12 cell line (ATCC, CRL-1772) was cultured at 37° C. in a 5% CO2 humidified incubator in Dulbecco's modified Eagle medium (DMEM; Thermo Fisher Scientific). For C2C12 cell proliferation, the medium was supplemented with 10% fetal bovine serum (FBS; Thermo Fisher Scientific), 100 units/ml penicillin, and 100 μg/ml streptomycin (1% Pen/Strep; Thermo Fisher Scientific). The proliferation medium was renewed each 2-3 days and confluency was kept below 80%. For differentiation of the C2C12 myoblasts into myotubes, proliferation medium was replaced by differentiation medium when cells reached 80% confluency.
Viability of QSM was assessed using the 3-(4,5-dimethylthiazol-2-yl)-2,5-diphenyltetrazolium bromide (MTT) assay. Briefly, C2C12 myoblasts were seeded in a 96-well plate (3×10^4 cells/well). 24 hours post-seeding, the wells were treated with QSM (1 μM), placebo or positive control (DMSO 2%) and incubated for 24 hours at 37° C. Next, 20 μL of MTT reagent (5 mg/mL; Sigma-Aldrich) was added to each well and the plates were returned to the incubator for 2.5 hours. After incubation, supernatant was removed from the wells and 150 μL of DMSO was added to release and dissolve the formazan crystals. Absorbance was measured at 570 nm using a microplate reader (Thermo Fisher).
The MTT assay is a widely validated and accepted viability assay for screening experiments. In this assay, the reduction of MTT into formazan, catalysed by living cell enzymes, is used as a marker of cell viability. If QSM are cytotoxic or cytostatic towards C2C12 cells, a decrease in MTT reduction is expected (viability less than 100%), while an increased C2C12 proliferation caused by QSM will result in an increased MTT reduction (viability more than 100%).
In a further set of experiments, the dose response effect of QSPs Q22 and Q184 was assessed on MTT reduction of C2C12 myotubes (tables 7.4 and 7.5).

Assay [4] deals with C. elegans. Description: C. elegans swimming behaviour (muscle wasting/aging model). The assay is classed as in vivo. To be noted: QSP in medium (1 μM; QSP022 also 10 μM), swimming parameters. The text has this: The C. elegans model is a well-established aging model: they diminish in locomotory vigor as they age, a phenomenon that is attributed to a physical deterioration of muscle and synapses. QSPs were introduced in the medium of living C. elegans. As comparisons, a placebo experiment was used as negative control, while DMSO was used as positive control.
Using automatic, objective imaging software, different swimming behaviour variables associated with this decrease in locomotory vigor or muscle wasting were investigated. Wave initiation rate, travel speed, brush stroke and activity index do decrease with muscle wasting, while body wave number, asymmetry, curling and stretch do increase with muscle wasting, as described in Restif et al., Plos Computational Biology, 2014.
More in particular, the results in these tables show Q184-associated changes in three swimming parameters in wild-type adults at day 3 (Table 9) and day 12 (Table 10) (n=120-170 from 3 independent trials for each condition). Data presented are means±s.e.m (placebo set to 1.0).

“Also recorded” adds a separate entry of the source.

Consider `CC[C@H](C)[C@@H]1NC(=O)CNC(=O)[C@H](C(C)C)NC(=O)[C@@H](N)CSC(=O)[C@H](Cc2c[nH]c3ccccc23)NC1=O` [Q022, CVGIW], for which, in assay [1], the “dose response relation, MTT reduction” value is recorded as “Typical curves were obtained”. The IC10 is 2.38 µM in assay [2] (MTT, Tubes) and 0.76 µM in assay [3] (MTT, Blasts). Moreover, the IC50 in assay [2] (MTT, Tubes) stood at 7.55 µM; in assay [3] (MTT, Blasts), 4.33 µM. Besides, the results for the “Imax (relative MTT)” value in assay [2] (Tubes) and in assay [3] (Blasts) were 0.55 relative MTT and 0.63 relative MTT, respectively. The “Relative MTT” value worked out at 0.99 in assay [2] (concentration 0.10 μM); 1.02 in assay [2] (concentration 0.50 μM); 1.03 in assay [2] (concentration 1.00 μM); 0.86 in assay [2] (concentration 5.00 μM); 0.73 in assay [2] (concentration 10 μM); 0.58 in assay [2] (concentration 50 μM). Besides, the “Relative MTT” value in assay [2] (concentration 100 μM) stood at 0.55. In assay [3] (screening at 1 μM, hit selection by MAD/quartile/SSMD/robust SSMD), the “Effect: viability (hit direction)” value is “strong decreasing viability hit”. Also, the “muscle wasting / aging muscle phenotype in C. elegans” value is reported as “muscle wasting effects; also recorded: inducing a muscle wasting phenotype” in assay [4] and “induces an aging muscle phenotype” in assay [4] (listed as QSP022).
